Legend:
[1] = system: Human dihydrofolate reductase (hDHFR); assay: Inhibition of human dihydrofolate reductase (Ki); assay type: biochemical; settings: Ki hDHFR divided by Ki quadruple mutant pfDHFR
Vero cells = settings: IC50 Vero cells divided by IC50 V1/S
From the text: In Vitro Antimalarial Activites Against P. falciparum and Cytotoxicity Towards Mammalian Cells (Vero Cells)

The chains behind the UniProt entries cited, without tags or fusion partners.
UniProt P13922, whole entry N51I/I164L: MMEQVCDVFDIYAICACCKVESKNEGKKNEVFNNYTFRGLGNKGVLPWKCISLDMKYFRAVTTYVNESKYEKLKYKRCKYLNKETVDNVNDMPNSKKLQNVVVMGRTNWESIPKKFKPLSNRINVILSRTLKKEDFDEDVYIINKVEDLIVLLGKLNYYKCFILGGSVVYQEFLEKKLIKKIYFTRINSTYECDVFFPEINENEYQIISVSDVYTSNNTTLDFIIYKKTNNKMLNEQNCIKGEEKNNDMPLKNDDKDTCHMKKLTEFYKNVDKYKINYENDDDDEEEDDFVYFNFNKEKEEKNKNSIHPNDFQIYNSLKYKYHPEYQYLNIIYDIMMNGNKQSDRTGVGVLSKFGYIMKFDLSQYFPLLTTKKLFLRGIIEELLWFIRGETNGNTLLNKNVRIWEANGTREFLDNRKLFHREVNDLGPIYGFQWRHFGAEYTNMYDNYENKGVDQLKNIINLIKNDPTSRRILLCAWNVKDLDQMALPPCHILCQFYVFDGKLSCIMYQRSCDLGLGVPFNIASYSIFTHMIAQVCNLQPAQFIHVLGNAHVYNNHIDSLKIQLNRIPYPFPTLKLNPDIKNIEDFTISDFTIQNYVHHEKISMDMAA

[2] = molecular target: quadruple mutant N51I + C59R + S108N + I164L (QM) pfDHFR (Plasmodium falciparum, UniProt P13922, I164L/N51I); assay: Inhibition of quadruple mutant pfDHFR (Ki); assay type: biochemical
Procedure: The synthesized 2,4-diamino-6-ethylpyrimdine derivatives as the hydrochloride salts were tested for the activities against Plasmodium falciparum (P. falciparum) according to the standard methods. These include the inhibition of dihydrofolate reductase (DHFR) enzymes of P. falciparum including, wild type (WT) and quadruple mutants (N51IC59RS108NI164L) (QM). The inhibition was expressed as inhibition constants (Ki) in nano molar (nM).

SMILES: CCc1nc(N)nc(N)c1-c1cn(Cc2ccccc2)nn1 [Compound 3]
- Selectivity ratio of Ki hDHFR/Ki QM [1]: 225.13
- Selectivity ratio (IC50 ratio) Vero/V1/S (Vero cells): >2.51

SMILES: CCc1nc(N)nc(N)c1-c1cn(CCCc2ccccc2)nn1 [Compound 8]
- Selectivity ratio of Ki hDHFR/Ki QM [1]: 74.02
- Selectivity ratio (IC50 ratio) Vero/V1/S (Vero cells): >1.55

SMILES: CCc1nc(N)nc(N)c1-c1cn(CCOc2ccc(Cl)cc2)nn1 [Compound 9]
- Selectivity ratio of Ki hDHFR/Ki QM [1]: 155.40
- Selectivity ratio (IC50 ratio) Vero/V1/S (Vero cells): 2.98

SMILES: CCc1nc(N)nc(N)c1-c1cn(CCCOc2ccc(Cl)cc2)nn1 [Compound 11]
- Selectivity ratio of Ki hDHFR/Ki QM [1]: 34.84
- Selectivity ratio (IC50 ratio) Vero/V1/S (Vero cells): <0.97

SMILES: CCc1nc(N)nc(N)c1-c1cn(CCCOc2ccc(C(=O)OC)cc2)nn1 [Compound 12]
- Selectivity ratio of Ki hDHFR/Ki QM [1]: 25.75
- Selectivity ratio (IC50 ratio) Vero/V1/S (Vero cells): <0.95

SMILES: CCc1nc(N)nc(N)c1OCc1cn(-c2cccc([N+](=O)[O-])c2)nn1 [Compound 14]
- Selectivity ratio of Ki hDHFR/Ki QM [1]: >2108.90
- Selectivity ratio (IC50 ratio) Vero/V1/S (Vero cells): >11.29

SMILES: CCc1nc(N)nc(N)c1OCc1cn(-c2ccc([N+](=O)[O-])cc2)nn1 [Compound 17]
- Selectivity ratio of Ki hDHFR/Ki QM [1]: >250.97
- Selectivity ratio (IC50 ratio) Vero/V1/S (Vero cells): >3.35

SMILES: CCc1nc(N)nc(N)c1OCCc1cn(-c2cccc(C(=O)O)c2)nn1 [Compound 20]
- Selectivity ratio of Ki hDHFR/Ki QM [1]: 46.43
- Selectivity ratio (IC50 ratio) Vero/V1/S (Vero cells): >14.37

SMILES: CCc1nc(N)nc(N)c1OCCCc1cn(-c2cccc(C(=O)O)c2)nn1 [Compound 23]
- Selectivity ratio of Ki hDHFR/Ki QM [1]: 54.02
- Selectivity ratio (IC50 ratio) Vero/V1/S (Vero cells): >78.13

SMILES: CCc1nc(N)nc(N)c1OCCCc1cn(-c2ccc(C(=O)O)cc2)nn1 [Compound 25]
- Selectivity ratio of Ki hDHFR/Ki QM [1]: 12.73
- Selectivity ratio (IC50 ratio) Vero/V1/S (Vero cells): 1.38

SMILES: CCc1nc(N)nc(N)c1OCCCc1cn(Cc2ccc(C(=O)O)cc2)nn1 [Compound 32]
- Selectivity ratio of Ki hDHFR/Ki QM [1]: 11.52
- Selectivity ratio (IC50 ratio) Vero/V1/S (Vero cells): >13.33

SMILES: CCc1nc(N)nc(N)c1OCc1cc(-c2ccccc2)no1 [Compound 33]
- Selectivity ratio of Ki hDHFR/Ki QM [1]: 38.93
- Selectivity ratio (IC50 ratio) Vero/V1/S (Vero cells): >1.59

SMILES: CCc1nc(N)nc(N)c1OCc1cc(-c2ccc(F)cc2)no1 [Compound 34]
- Selectivity ratio of Ki hDHFR/Ki QM [1]: 13.89
- Selectivity ratio (IC50 ratio) Vero/V1/S (Vero cells): >1.32

SMILES: CCc1nc(N)nc(N)c1OCc1cc(-c2ccc(Cl)cc2)no1 [Compound 35]
- Selectivity ratio of Ki hDHFR/Ki QM [1]: 18.00
- Selectivity ratio (IC50 ratio) Vero/V1/S (Vero cells): >1.20

SMILES: CCc1nc(N)nc(N)c1OCc1cc(-c2ccc(Br)cc2)no1 [Compound 36]
- Selectivity ratio of Ki hDHFR/Ki QM [1]: 20.85
- Selectivity ratio (IC50 ratio) Vero/V1/S (Vero cells): >1.43

SMILES: CCc1nc(N)nc(N)c1OCc1cc(-c2cccc(C(F)(F)F)c2)no1 [Compound 37]
- Selectivity ratio of Ki hDHFR/Ki QM [1]: >942.86
- Selectivity ratio (IC50 ratio) Vero/V1/S (Vero cells): 1.83

SMILES: CCc1nc(N)nc(N)c1OCc1cc(-c2cccc([N+](=O)[O-])c2)no1 [Compound 39]
- Selectivity ratio of Ki hDHFR/Ki QM [1]: >2040.39
- Selectivity ratio (IC50 ratio) Vero/V1/S (Vero cells): >5.51

SMILES: CCc1nc(N)nc(N)c1OCc1cc(-c2cccc(C(=O)O)c2)no1 [Compound 40]
- Selectivity ratio of Ki hDHFR/Ki QM [1]: 131.89
- Selectivity ratio (IC50 ratio) Vero/V1/S (Vero cells): >14.79

SMILES: CCc1nc(N)nc(N)c1OCc1cc(-c2ccc(C(F)(F)F)cc2)no1 [Compound 41]
- Ki [2]: 316 ± 62.3 nM
- Selectivity ratio of Ki hDHFR/Ki QM [1]: >316.16

SMILES: CCc1nc(N)nc(N)c1OCCCc1cc(-c2ccc(Cl)cc2)no1 [Compound 45]
- Selectivity ratio of Ki hDHFR/Ki QM [1]: 9.50
- Selectivity ratio (IC50 ratio) Vero/V1/S (Vero cells): >7.85

SMILES: CCc1nc(N)nc(N)c1OCCCc1cc(-c2cccc(C(F)(F)F)c2)no1 [Compound 46]
- Selectivity ratio of Ki hDHFR/Ki QM [1]: 15.01
- Selectivity ratio (IC50 ratio) Vero/V1/S (Vero cells): 0.59

SMILES: CCc1nc(N)nc(N)c1OCCCc1cc(-c2cccc(C#N)c2)no1 [Compound 47]
- Selectivity ratio of Ki hDHFR/Ki QM [1]: 21.03
- Selectivity ratio (IC50 ratio) Vero/V1/S (Vero cells): 0.10

SMILES: CCc1nc(N)nc(N)c1OCCCc1cc(-c2cccc(C(=O)OC)c2)no1 [Compound 48]
- Selectivity ratio of Ki hDHFR/Ki QM [1]: 28.95
- Selectivity ratio (IC50 ratio) Vero/V1/S (Vero cells): 7.60

SMILES: CCc1nc(N)nc(N)c1OCCCc1cc(-c2cccc(C(=O)O)c2)no1.Cl [Compound 49, 2,4-diamino-6-ethyl-5-(3-(3-(3-(carboxy)phenyl)isoxazol-5-yl)propoxy)pyrimidine Hydrochloride]
- Selectivity ratio of Ki hDHFR/Ki QM [1]: 43.59
- Selectivity ratio (IC50 ratio) Vero/V1/S (Vero cells): >1052.63

SMILES: CCc1nc(N)nc(N)c1OCc1coc(-c2ccccc2)n1 [Compound 50]
- Selectivity ratio of Ki hDHFR/Ki QM [1]: 5.25
- Selectivity ratio (IC50 ratio) Vero/V1/S (Vero cells): >3.65

SMILES: CCc1nc(N)nc(N)c1OCc1coc(-c2cccc(C)c2)n1 [Compound 51]
- Selectivity ratio of Ki hDHFR/Ki QM [1]: 5.34
- Selectivity ratio (IC50 ratio) Vero/V1/S (Vero cells): 3.47

SMILES: CCc1nc(N)nc(N)c1OCc1coc(-c2cccc([N+](=O)[O-])c2)n1 [Compound 52]
- Selectivity ratio of Ki hDHFR/Ki QM [1]: >1073.42
- Selectivity ratio (IC50 ratio) Vero/V1/S (Vero cells): >3.31

SMILES: CCc1nc(N)nc(N)c1OCc1coc(-c2ccc(OCC(=O)OCc3ccccc3)cc2)n1 [Compound 56]
- Selectivity ratio of Ki hDHFR/Ki QM [1]: >2139.49
- Selectivity ratio (IC50 ratio) Vero/V1/S (Vero cells): >4.29

SMILES: CCc1nc(N)nc(N)c1OCCc1coc(-c2ccccc2)n1 [Compound 58]
- Selectivity ratio of Ki hDHFR/Ki QM [1]: 4.41
- Selectivity ratio (IC50 ratio) Vero/V1/S (Vero cells): 0.11

SMILES: CCc1nc(N)nc(N)c1OCc1csc(-c2ccccc2)n1 [Compound 60]
- Selectivity ratio of Ki hDHFR/Ki QM [1]: 7.10
- Selectivity ratio (IC50 ratio) Vero/V1/S (Vero cells): >2.40

SMILES: CCc1nc(N)nc(N)c1OCc1csc(-c2cccc(C)c2)n1 [Compound 61]
- Selectivity ratio of Ki hDHFR/Ki QM [1]: 3.49
- Selectivity ratio (IC50 ratio) Vero/V1/S (Vero cells): 1.74

SMILES: CCc1nc(N)nc(N)c1OCc1csc(-c2cccc([N+](=O)[O-])c2)n1 [Compound 62]
- Selectivity ratio of Ki hDHFR/Ki QM [1]: 2.51
- Selectivity ratio (IC50 ratio) Vero/V1/S (Vero cells): 4.50

SMILES: CCc1nc(N)nc(N)c1OCc1csc(-c2ccc(C)cc2)n1 [Compound 67]
- Selectivity ratio of Ki hDHFR/Ki QM [1]: >3657.64
- Selectivity ratio (IC50 ratio) Vero/V1/S (Vero cells): 1.52

SMILES: CCc1nc(N)nc(N)c1OCc1csc(-c2ccc(OC)cc2)n1 [Compound 68]
- Selectivity ratio of Ki hDHFR/Ki QM [1]: 11.57
- Selectivity ratio (IC50 ratio) Vero/V1/S (Vero cells): 3.37

SMILES: CCc1nc(N)nc(N)c1OCc1csc(-c2ccc(Cl)cc2)n1 [Compound 70]
- Selectivity ratio of Ki hDHFR/Ki QM [1]: 9.46
- Selectivity ratio (IC50 ratio) Vero/V1/S (Vero cells): 2.61

SMILES: CCc1nc(N)nc(N)c1OCc1csc(-c2ccc(Br)cc2)n1 [Compound 71]
- Selectivity ratio of Ki hDHFR/Ki QM [1]: 8.36
- Selectivity ratio (IC50 ratio) Vero/V1/S (Vero cells): >1.34

SMILES: CCc1nc(N)nc(N)c1OCc1csc(-c2ccc(C(=O)OC)cc2)n1 [Compound 74]
- Selectivity ratio of Ki hDHFR/Ki QM [1]: 13.15
- Selectivity ratio (IC50 ratio) Vero/V1/S (Vero cells): >3.15

SMILES: CCc1nc(N)nc(N)c1OCCc1csc(-c2ccccc2)n1 [Compound 76]
- Selectivity ratio of Ki hDHFR/Ki QM [1]: 2.88
- Selectivity ratio (IC50 ratio) Vero/V1/S (Vero cells): 0.075

Reference: patent publication US11028072B2, “2,4-diamino-6-ethylpyrimidine derivatives with antimalarial activities against Plasmodium falciparum” (National Science and Technology Development Agency, priority 2015, dated 2021)
